Assay results: PubChem BioAssay AID652105 (National Center for Advancing Translational Sciences (NCATS), 2013)
The entries are a selection whose mix differs from that of the whole data set. Active and inactive are the calls of the source. Rule for the calls: active = max response of -50% or lower; inconclusive = between -30% and -50%; inactive = -30% or higher.

Amino acid sequences for entries named in this document (tags omitted).
UniProt P48426, whole entry: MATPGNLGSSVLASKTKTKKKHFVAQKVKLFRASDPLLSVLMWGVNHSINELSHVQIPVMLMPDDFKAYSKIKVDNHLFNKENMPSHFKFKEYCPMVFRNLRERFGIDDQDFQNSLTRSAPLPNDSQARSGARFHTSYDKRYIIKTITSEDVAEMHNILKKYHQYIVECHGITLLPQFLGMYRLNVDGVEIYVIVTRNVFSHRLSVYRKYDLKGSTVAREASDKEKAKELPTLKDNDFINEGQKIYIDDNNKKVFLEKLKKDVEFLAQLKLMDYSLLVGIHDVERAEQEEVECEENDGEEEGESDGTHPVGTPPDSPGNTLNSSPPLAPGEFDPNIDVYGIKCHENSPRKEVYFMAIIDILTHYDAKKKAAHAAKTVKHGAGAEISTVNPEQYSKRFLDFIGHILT

Biological target: Phosphatidylinositol 5-phosphate 4-kinase type-2 alpha (Homo sapiens) (UniProt P48426)
Assay: qHTS for Inhibitors of phosphatidylinositol 5-phosphate 4-kinase (PI5P4K); note: value at the top dose of about 77 µM
Settings: PI5P4Kalpha enzyme, ADP-Glo luminescence, 60 min; active compounds read low
From the text: In addition to finding PI5P, we discovered the type II phosphatidylinositol 5-phosphate 4-kinase (PI5P4K) family (alpha, beta, gamma isoforms) that catalyze the conversion of PI5P to PI(4,5)P2. Alternatively, PI(4,5)P2 can also be synthesized through phosphatidylinositol-4-phosphate (PI4P) by the type I phosphatidylinositol 4-phosphate 5-kinases (PI4P5K). These PI5P4K enzymes therefore represent one way by which cells can regulate endogenous PI5P levels and play important roles in insulin signaling and in stress responses.
This proposal aims to identify and optimize specific modulators of human PI5P4K, phosphatidylinositol-5-phosphate 4-kinase (Type II PIPK), a family of kinases that regulate AKT signaling and tumor cell growth. In this project we aim to identify inhibitors of human PI5P4K using a quantitative high-throughput screening approach against the MLSMR containing ~400,000 small molecules.
NIH Chemical Genomics Center [NCGC]
NIH Molecular Libraries Probe Centers Network [MLPCN]
Assay Submitter (PI): Atsuo Sasaki, Beth Israel Deaconess Medical Center
2 microL of PI5P4Kalpha/substrate buffer (columns 1-2, 5-48) are dispensed into Greiner white solid bottom 1536-well assay plates; column 3 receives only PI5P4Kalpha buffer as 0x substrate controls; column 4 receives only substrate buffer as 0x PI5P4Kalpha controls. Final assay buffer consists of 0.038 M HEPES pH 7.4, 0.28 mM EGTA, 0.1% CHAPS, and 5% DMSO (final concentration). Compounds are then transferred via Kalypsys pin tool equipped with 1536-pin array (10 nL slotted pins, V&P Scientific, San Diego, CA). Following addition of compound, 1 microL of ATP (5 microM final concentration, all columns) is added to initiate the reaction. ATP is diluted in an assay buffer consisting of 0.02 M HEPES pH 7.4, 60 mM MgCl2, 15 microM ATP, and 0.1% CHAPS. The plates are then incubated at room temperature for 60 minutes. ADP-Glo reagent 1 is added (2 microL) and plates incubated for 45 minutes, before ADP-Glo reagent 2 (4 microL) is added and plates incubated for 30 minutes. They are then transferred to a ViewLux high-throughput CCD imager (PerkinElmer) wherein single end-point measurements of luminescence are acquired using a clear filter.
% is set by controls: 0 for no effect and ±100 for the full control effect.

SMILES	max response
COc1ccc(OP(C)(=O)Nc2cccc(Br)c2)cc1 (stereo not given)	inactive: -0.282%
Cc1c(C(c2ccc3c(c2)OCO3)c2c(C)n(C)n(-c3ccccc3)c2=O)c(=O)n(-c2ccccc2)n1C.O=[N+]([O-])c1cc([N+](=O)[O-])c(O)c([N+](=O)[O-])c1	inactive: 8.14%
Cc1cc(-c2cccc3ccccc23)c(C)cn1.O=[N+]([O-])c1cc([N+](=O)[O-])c(O)c([N+](=O)[O-])c1	inactive: -7.12%
O=[N+]([O-])c1ccc(OP2(=O)COCCO2)cc1 (stereo not given)	inactive: 2.92%
CCOP(C)(=S)SCC(=O)NC(C)(CC)C(=O)O (stereo not given)	inactive: 3.36%
CP(=O)(Nc1ccc(SC(F)(F)F)cc1)Oc1ccc(F)cc1 (stereo not given)	inactive: 7.99%
O=[N+]([O-])c1cc([N+](=O)[O-])c(C(F)(F)F)c([N+](=O)[O-])c1O	inactive: -2.93%
Cc1ccccc1NP(C)(=O)Nc1ccccc1C	inactive: -1.95%
CP(=O)(Nc1ccc2c(c1)OCCO2)Oc1ccccc1 (stereo not given)	inactive: -1.26%
CC(C)c1ccc(OP(C)(=O)Nc2ccc(SC(F)(F)F)cc2)cc1 (stereo not given)	inactive: 32.9%
O=C(OCCN1CCN(CCOCc2ccccc2)CC1)C(O)(c1ccccc1)c1ccccc1	inactive: 0.921%
COc1ccc(OP(C)(=O)Nc2ccc(SC(F)(F)F)cc2)cc1 (stereo not given)	inactive: 11%
CCOC(=O)c1ccc(NP(C)(=O)Oc2ccc(F)cc2)cc1 (stereo not given)	inactive: -3.1%
CCCCCOc1ccc(NP(C)(=O)Oc2ccc(Cl)cc2Cl)cc1 (stereo not given)	inactive: 29.7%
CCN(CC)CCCOC(=O)C(O)(c1ccccc1)C1CCCCC1 (stereo not given)	inactive: -0.71%
Cc1c([N+](=O)[O-])cc([N+](=O)[O-])c(Br)c1[N+](=O)[O-]	inactive: -21.3%
COc1ccc(OP(C)(=O)Nc2ccccc2Br)cc1 (stereo not given)	inactive: -4.19%
COc1ccccc1OP(C)(=O)Nc1ccc(C)c(C)c1 (stereo not given)	inactive: -0.0312%
Cc1cc(C)cc(OP(C)(=O)Nc2cccc(C(F)(F)F)c2)c1 (stereo not given)	inactive: 13.1%
CP(=O)(OCCOc1ccccc1)OCCOc1ccccc1	inactive: 1.7%
CCCCCCCCCCCCCCCC1C[N+](C)(C)CCOP(C)(=O)O1 (stereo not given)	inactive: -1.57%
CP(=O)(Nc1ccc(Cl)cc1Cl)Oc1ccccc1 (stereo not given)	inactive: 9.08%
COc1ccccc1OP(C)(=O)Nc1ccc(Br)cc1 (stereo not given)	inactive: 3.94%
CCc1ccc(OP(C)(=O)O)cc1	inactive: 8.04%
CP(=O)(Nc1ccccn1)Oc1ccccc1 (stereo not given)	inactive: -6.71%

SMILES	max response
COc1ccccc1OP(C)(=O)Nc1ccc(C)cc1C (stereo not given)	inactive: -2.95%
O=[N+]([O-])c1cc([N+](=O)[O-])c(Nc2ccccn2)c([N+](=O)[O-])c1	inactive: 0.0984%
Cc1c(NP(C)(=O)Oc2ccc(C(C)C)cc2)c(=O)n(-c2ccccc2)n1C (stereo not given)	inactive: 0.25%
CP(=O)(Oc1ccccc1)N1CCOC1=O (stereo not given)	inactive: -2.08%
CCc1ccc(OP(C)(=O)Nc2cccnc2)cc1 (stereo not given)	inactive: 2.36%
COc1ccccc1OP(C)(=O)Nc1c(C)n(C)n(-c2ccccc2)c1=O (stereo not given)	inactive: -4.78%
O=C(OCCCN1CCCC1)C(O)(c1ccccc1)C1CCCCC1 (stereo not given)	inactive: 1.01%
CCN(CC)CC(O)COC(=O)C(O)(c1ccccc1)C1CCCCC1 (stereo not given)	inactive: 1.69%
COc1ccc(OP(C)(=O)Nc2ccc(Br)cc2)cc1 (stereo not given)	inactive: 7.03%
CN(C)C(=O)c1c([N+](=O)[O-])cc([N+](=O)[O-])cc1[N+](=O)[O-]	inactive: -15.8%
COc1ccccc1OP(C)(=O)Nc1ccccc1Br (stereo not given)	inactive: 2.48%
CCOC(=O)c1ccc(NP(C)(=O)Oc2ccc(Cl)cc2)cc1 (stereo not given)	inactive: -0.26%
Nc1ccc2c(ccc3cccnc32)n1.O=[N+]([O-])c1cc([N+](=O)[O-])c(O)c([N+](=O)[O-])c1	inactive: -26%
COc1ccccc1OP(C)(=O)Nc1ccccc1 (stereo not given)	inactive: -0.82%
CP(=O)(Nc1ccccc1Br)Oc1ccccc1 (stereo not given)	inactive: 0.0356%
CP(=S)(Nn1cnnc1)Oc1ccccc1 (stereo not given)	inactive: 5%
CCc1ccc(OP(C)(=O)N2CCN(c3ccc([N+](=O)[O-])cc3)CC2)cc1 (stereo not given)	inactive: 0.809%
Cc1cc(C)cc(OP(C)(=O)Nc2ccc(SC(F)(F)F)cc2)c1 (stereo not given)	inactive: 18.7%
Cc1cccc(C)c1OP(C)(=O)Nc1ccc(SC(F)(F)F)cc1 (stereo not given)	inactive: 18.4%
CP(=O)(Nc1ccc(SC(F)(F)F)cc1)Oc1ccc(Cl)cc1 (stereo not given)	inactive: 13.3%
CP(=O)(Oc1ccccc1)OC(c1ccccc1)C(F)(F)F (stereo not given)	inactive: 1.21%
CCOP(C)(=S)SCC(=O)NC(C)C(=O)O (stereo not given)	inactive: -4.79%
CCOC(=O)c1ccc(NP(C)(=O)Oc2ccc(OC)cc2)cc1 (stereo not given)	inactive: -6.43%
O=[N+]([O-])c1cc([N+](=O)[O-])c(O)c([N+](=O)[O-])c1.c1ccc(Oc2ccncc2)cc1	inactive: -23%
CCN(CC)CCCOC(=O)C(O)(c1ccccc1)c1ccccc1	inactive: 2.57%

SMILES	max response
COc1ccccc1-c1ccccn1.O=[N+]([O-])c1cc([N+](=O)[O-])c(O)c([N+](=O)[O-])c1	inactive: -12.8%
CC(C)(C)c1ccc(OP(C)(=O)Nc2ccc(SC(F)(F)F)cc2)cc1 (stereo not given)	inactive: 18.4%
Cc1cccc(C)c1OP(C)(N)=O (stereo not given)	inactive: 5.2%
O=[N+]([O-])c1ccc2c(c1)C=Nc1ccccc1O2	inactive: 2.47%
O=[N+]([O-])c1cc([N+](=O)[O-])c(Nc2cccnc2)c([N+](=O)[O-])c1	inactive: -20.1%
COc1ccccc1OP(C)(=O)Nc1cc(Cl)ccc1C (stereo not given)	inactive: 1.75%
COc1ccc(OP(C)(=O)Nc2cccc(F)c2)cc1 (stereo not given)	inactive: 3.47%
Cc1cc(C)cc(OP(C)(N)=O)c1 (stereo not given)	inactive: 5.85%
CCOC(=O)c1ccc(NP(C)(=O)Oc2ccccc2)cc1 (stereo not given)	inactive: -4.66%
COc1ccccc1OP(C)(=O)Nc1ccc(C)cc1 (stereo not given)	inactive: 7.92%
Cc1ccc(NP(C)(=O)Oc2ccccc2)c(C)c1 (stereo not given)	inactive: 1.97%
CC1=NCCc2c1[nH]c1ccccc21.O=[N+]([O-])c1cc([N+](=O)[O-])c(O)c([N+](=O)[O-])c1	inactive: -13.5%
CCOC(=O)c1ccc(NP(C)(=O)Oc2cc(C)cc(C)c2)cc1 (stereo not given)	inactive: 5.74%
COc1ccccc1OP(C)(=O)Nc1cccc(Br)c1 (stereo not given)	inactive: -1.61%
CP(=O)(Nc1cccc(Br)c1)Oc1ccccc1 (stereo not given)	inactive: 3.78%
Cc1ccc(C)c(NP(C)(=O)Oc2ccccc2)c1 (stereo not given)	inactive: 8.76%
CN(Cc1cccnc1)C(=O)COc1ccc(Cl)c(Cl)c1.O=[N+]([O-])c1cc([N+](=O)[O-])c(O)c([N+](=O)[O-])c1	inactive: -20.4%
O=[N+]([O-])c1cc([N+](=O)[O-])c(-c2cnn(-c3ccccc3)c2)c([N+](=O)[O-])c1	inactive: -1.73%
O=[N+]([O-])c1cc([N+](=O)[O-])c(Nc2nnnn2CCO)c([N+](=O)[O-])c1	inactive: -24.8%
CC1=C2N=C(C=C3N=C(C(C)=C4[N-][C@@](C)([C@@H]5N=C1[C@](C)(CCC(=O)NC[C@@H](C)OP(=O)([O-])O[C@H]1[C@@H](O)[C@@H](n6cnc7cc(C)c(C)cc76)O[C@@H]1CO)[C@H]5CC(N)=O)[C@@](C)(CC(N)=O)[C@@H]4CCC(N)=O)[C@@](C)(CC(N)=O)[C@@H]3CCC(N)=O)C(C)(C)[C@@H]2CCC(N)=O.[C-]#N.[Co+3]	inactive: -23%
CP(=O)(Nc1ccc(SC(F)(F)F)cc1)Oc1ccccc1 (stereo not given)	inactive: 1.81%
CCCOc1ccc(NP(C)(=O)Oc2ccc(Cl)cc2)cc1 (stereo not given)	inactive: 9.43%
COc1ccc(-c2ccccn2)cc1.O=[N+]([O-])c1cc([N+](=O)[O-])c(O)c([N+](=O)[O-])c1	inactive: -18.1%
COc1ccccc1OP(C)(=O)Nc1c(C)cccc1C (stereo not given)	inactive: 4.29%
CN1CCCCC1COC(=O)C1(O)c2ccccc2CCc2ccccc21 (stereo not given)	inactive: 2.91%
